{"sequences": {"note": "Protein sequences, listed by entry. Tags and fused reporters are not part of them. Residues count along the entry.", "UniProt P35354, 18-604, species assumed": "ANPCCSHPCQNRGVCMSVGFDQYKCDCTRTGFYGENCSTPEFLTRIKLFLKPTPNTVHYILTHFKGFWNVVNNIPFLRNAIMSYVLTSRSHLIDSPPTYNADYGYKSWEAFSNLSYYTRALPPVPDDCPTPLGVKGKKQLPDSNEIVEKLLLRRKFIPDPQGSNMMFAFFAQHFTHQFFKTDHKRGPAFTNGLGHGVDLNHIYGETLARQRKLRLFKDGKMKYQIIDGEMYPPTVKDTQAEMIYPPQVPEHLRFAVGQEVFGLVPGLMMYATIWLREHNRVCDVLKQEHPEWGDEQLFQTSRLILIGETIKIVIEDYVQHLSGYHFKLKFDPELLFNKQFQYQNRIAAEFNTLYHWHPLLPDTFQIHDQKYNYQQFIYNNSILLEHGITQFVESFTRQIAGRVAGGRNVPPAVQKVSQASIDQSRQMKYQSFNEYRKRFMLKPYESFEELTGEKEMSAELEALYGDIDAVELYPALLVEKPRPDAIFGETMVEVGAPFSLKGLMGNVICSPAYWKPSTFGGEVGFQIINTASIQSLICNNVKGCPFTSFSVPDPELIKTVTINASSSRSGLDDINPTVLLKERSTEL"}, "source": "patent US6936632B2", "about": "“Fused pyrrole compounds, pharmaceutical agents containing the same, and the use thereof” (Merckle GmbH, priority 2000, dated 2005)", "origin": "cited, not measured here", "biological_target": "cyclooxygenase-2 (Homo sapiens, UniProt P35354)", "conditions": "cited from earlier work"}
{"smiles": "CS(=O)(=O)c1ccc(C2=C(c3ccc(F)cc3)C(=O)OC2)cc1", "note": "[lactone 5]", "values": [{"measurement": "activity on cyclooxygenase-2", "result": "high activity"}, {"measurement": "selectivity for cyclooxygenase-2 isoform", "result": "high selectivity"}]}
